Results on 3 compounds are retold here after ChEMBL document CHEMBL1149846, “The role of lipophilicity in determining binding affinity and functional activity for 5-HT2A receptor ligands” (Bioorg Med Chem, 2008).

Protein sequences, listed by entry. Tags and fused reporters are not part of them.
UniProt P14842, whole entry: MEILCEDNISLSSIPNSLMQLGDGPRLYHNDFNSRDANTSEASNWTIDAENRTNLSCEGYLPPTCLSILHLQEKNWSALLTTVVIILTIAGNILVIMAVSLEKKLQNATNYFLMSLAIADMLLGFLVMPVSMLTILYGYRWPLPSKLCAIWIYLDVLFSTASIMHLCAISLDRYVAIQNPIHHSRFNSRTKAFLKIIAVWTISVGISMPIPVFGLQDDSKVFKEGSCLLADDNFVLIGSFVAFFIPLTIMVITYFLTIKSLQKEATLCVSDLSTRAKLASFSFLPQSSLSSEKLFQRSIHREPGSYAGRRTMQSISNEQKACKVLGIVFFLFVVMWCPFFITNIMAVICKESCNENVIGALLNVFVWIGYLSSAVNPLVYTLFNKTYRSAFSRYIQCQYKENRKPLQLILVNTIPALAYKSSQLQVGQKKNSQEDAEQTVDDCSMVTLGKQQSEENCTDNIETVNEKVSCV

Assay [1] deals with T1, 5-hydroxytryptamine receptor 2A (Rattus norvegicus, UniProt P14842). Nature of the assay: Displacement of [3H]ketanserin from 5HT2A receptor in Sprague-Dawley rat brain by liquid scintillation spectroscopy.
Assay [2] concerns the target 5-hydroxytryptamine receptor 2A (Rattus norvegicus) (UniProt P14842). Put plainly: Agonist activity at Sprague-Dawley rat 5HT2A receptor by drug discrimination assay. Format: functional. The conditions noted are these: filed as agonist.
For assay [3], the target named is T1, 5-hydroxytryptamine receptor 2A. Put plainly: Displacement of [3H]MDL100907 from 5HT2A receptor in Sprague-Dawley rat brain by liquid scintillation spectroscopy. In outline: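 Frontal cortex from male Sprague-Dawley rat brains, washed in 50 mM Tris-HCl pH 7.4 and resuspended in buffer with 0.5 mM Na2EDTA, 10.0 μM pargyline, 5.7 mM CaCl2 and 0.1% ascorbate. Incubated with 0.2 nM [3H]MDL 100,907 for 15 min at 37 °C. Cinanserin (10 μM) defined nonspecific binding. Bound label was collected by GF/C filtration and counted. Values from ≥3 experiments, each in triplicate.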
(In general: Displacement assays read how much labelled ligand stays bound in the presence of the test substance.)

Turning to `CCc1cc(OC)c(CC(C)N)cc1OC` (racemic), in assay [1], the Ki – broadly, a dissociation constant, usually derived from enzyme kinetics or from competition with a known ligand – stood at 100 nM.

For the compound `COc1cc(CC(C)N)c(OC)cc1C` (racemic) [DOM], the Efficacy result in assay [2] is “Agonist”.

Turning to `Cc1nc2sccn2c(=O)c1CCN1CCC(=C(c2ccc(F)cc2)c2ccc(F)cc2)CC1` [RITANSERIN], the Ki in assay [3] came out at 36 nM; in assay [1], 1.7 nM.
